Experimental data as given in patent EP2883881A1, “Cobaltcomplex salts and mixtures of Cobaltcomplex salts for use in DSSC” (dated 2015).

Assay: Solubility of the Cobaltcomplex salt in the solvent of the electrolyte formulation
[1] = solvent gamma-butyrolactone, Table 3

[Co(3,3'-dimethoxy-2,2'-bipy)3][N(FSO2)2]2
Solubility [1]: good

[Co(3,3'-dimethoxy-2,2'-bipy)bipy2][N(FSO2)2]2
Solubility [1]: good

[Co(3,6'-dimethoxy-2,2'-bipy)3][N(FSO2)2]2
Solubility (solvent 3-methoxypropionitrile, Table 1, without CDCA): good
